Target: human TRPV1 (Homo sapiens (Human), UniProt Q8NER1)
Assay: pH-based assay, Protocol 2 (hpH-CHO)
Format: cell-based
Conditions: TRPV1/CHO cells, pH 5.0-5.1; mean ± SEM; read-out: TRPV1 IC50 Potency Human pH CHO (hpH-CHO)
Description: For Protocol 2, a Chinese Hamster Ovary cell line (CHO) that has been engineered to constitutively express human recombinant TRPV1 was used (TRPV1/CHO cells). The TRPV1/CHO cell line was generated as described below.
The resulting PCR products were purified from agarose gels using Gel Band Purification Kit (GE Healthcare Bioscience) and were subcloned into pCR-Blunt vector (Invitrogen). The cloned cDNA was fully sequenced using a fluorescent dye-terminator reagent (BigDye Terminator ver3.1 Cycle Sequencing Kit, Applied Biosystems) and ABI Prism 3100 genetic analyzer (Applied Biosystems). The pCR-Blunt vector containing the hTRPV1 cDNA was subjected to restriction digestion with EcoR1. […] The sequence of the cDNA encoding TRPV1 is available at GenBank accession number AJ277028.
CHO-K1 cells were maintained in growth medium consisting of α-MEM, 10% FBS (Hyclone), and 100 IU/mL of penicillin-100 μg/mL of streptomycin mixed solution (Nacalai Tesque, Japan) at 37° C. in an environment of humidified 95% air and 5% CO2. […] 24 hr after transfection, neomycin-resistant cells were selected using 1 mg/mL G418 (Nacalai Tesque). […]
(5) The Fura-2 fluorescent intensity was monitored at a wavelength of 340 nm and at 380 nm, respectively, at a rate of 0.5 Hz for a total of 240 seconds.

Amino acid sequences for entries named in this document (tags omitted).
UniProt Q8NER1, whole entry: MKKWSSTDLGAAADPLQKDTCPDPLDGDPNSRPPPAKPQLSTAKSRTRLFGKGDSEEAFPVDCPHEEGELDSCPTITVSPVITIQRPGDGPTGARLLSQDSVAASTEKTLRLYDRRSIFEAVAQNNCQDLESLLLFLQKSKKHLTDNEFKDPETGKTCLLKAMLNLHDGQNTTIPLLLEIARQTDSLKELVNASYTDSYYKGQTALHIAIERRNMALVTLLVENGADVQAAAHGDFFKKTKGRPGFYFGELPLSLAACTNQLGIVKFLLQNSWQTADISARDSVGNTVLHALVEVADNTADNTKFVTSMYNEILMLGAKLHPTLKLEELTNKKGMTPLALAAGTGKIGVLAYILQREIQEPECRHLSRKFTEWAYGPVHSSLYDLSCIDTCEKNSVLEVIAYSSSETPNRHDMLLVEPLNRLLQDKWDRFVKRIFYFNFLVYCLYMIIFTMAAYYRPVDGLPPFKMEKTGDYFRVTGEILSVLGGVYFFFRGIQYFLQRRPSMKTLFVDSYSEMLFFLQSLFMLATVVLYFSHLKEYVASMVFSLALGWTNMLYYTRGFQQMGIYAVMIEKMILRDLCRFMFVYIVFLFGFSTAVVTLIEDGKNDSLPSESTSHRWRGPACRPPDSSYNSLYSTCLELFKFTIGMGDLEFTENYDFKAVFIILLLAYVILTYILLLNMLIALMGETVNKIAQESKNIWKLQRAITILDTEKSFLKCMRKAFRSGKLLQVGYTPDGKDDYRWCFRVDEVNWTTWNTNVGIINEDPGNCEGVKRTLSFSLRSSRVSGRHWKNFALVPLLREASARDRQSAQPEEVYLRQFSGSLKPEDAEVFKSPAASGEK

**Q.** How did the IC50 turn out when `CCC(O)c1cnc(C2=CCN(C(=O)Nc3ccc(C(F)(F)F)cc3)CC2)c(Cl)c1` (stereo not shown) [Compound U2] was run?
**A.** 54.3 ± 5.9 nM

Source: patent US9365563B2, “TRPV1 antagonists including dihydroxy substituent and uses thereof” (Purdue Pharma L.P., priority 2007, dated 2016)
